## Apparent affinities of Ab-14 variants for a coronavirus HR2 peptide

The measurements come from Engelhart et al. 2022 (doi:10.1038/s41597-022-01779-4) through the FLAb antibody collection.

The target is the same throughout: PDVDLGDISGINAS, from the HR2 region of SARS-CoV-2 spike.

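The parent was found by panning a naive human phage display library on the peptide. AAYL50 was designed without a model: most single CDR substitutions and a random sample of double and triple ones. AlphaSeq pools MATa yeast showing the antibodies with MATalpha yeast showing the peptide. Binding brings cells together so that they mate, and sequencing counts the barcode pairs among the diploids. Read counts were normalised to the haploid input and turned into Kd by a linear fit to BCL2-family pairs of known affinity, for each replicate. Each pool was mated in three replicate cultures.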

Each scFv is VH, a (GGGGS)3 linker, VL, as in the parent Ab-14, and differs from it in the CDRs of the light chain only.
VH: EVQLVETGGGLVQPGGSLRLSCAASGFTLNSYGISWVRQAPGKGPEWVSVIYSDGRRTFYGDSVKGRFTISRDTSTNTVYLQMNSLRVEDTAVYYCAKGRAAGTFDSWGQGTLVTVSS
VL: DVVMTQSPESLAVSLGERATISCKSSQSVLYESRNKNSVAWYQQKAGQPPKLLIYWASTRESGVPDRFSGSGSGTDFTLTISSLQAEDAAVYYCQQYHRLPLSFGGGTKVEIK

The parent's light chain CDRs are KSSQSVLYESRNKNSVA, WASTRES, QQYHRLPLS; each variant's own CDRs replace them letter for letter. Scale: log10 of Kd in nM, estimated from mating counts; low values are strong binders. An entry "nd" has no value in the source: the pair was not observed among the diploids in that replicate. This suggests poor binding but is not conclusive. For reference, the parent read 0.65 as the reference entry and 1.68 as a member of this library. Background: pairings of library AAYL50 with three empty control strains gave a value in 18% of cases (median 4.19, 5th percentile 2.99). Values in that range, when seen in few replicates, are hard to tell from nonspecific mating. For each scFv, signals with the empty controls are counted beside the result, with their mean in brackets.

| CDR-L1 | CDR-L2 | CDR-L3 | replicates, log10 nM | signal with controls |
|---|---|---|---|---|
| KSSQSVLYESRNKNSVA | WASPIES | QQYHRLPIS | nd nd nd | 0 of 9 |
| KSSQSVLYESFNKNSVA | WASTCES | QQYHHLPLS | 2.45 1.61 1.99 | 0 of 9 |
| KSSQSVLFESRNKNSVA | WASTREG | QQYRRLPLS | nd nd nd | 0 of 9 |
| KSFQSVLYESRNRNSVA | WASTREH | QQYHRLPLS | nd nd nd | 0 of 9 |
| KESQPVLYESRNKNSVA | WASTRES | QQYHRLPLS | 0.65 0.85 0.72 | 2 of 9 (5.13) |
| KSSQAVLYESRNKNSPA | WASTRES | QQYHRLWLS | nd nd nd | 0 of 9 |
| KSSQSVLYESRNKVSVA | WASMRES | QQLHRLPLS | nd nd 4.14 | 3 of 9 (3.57) |
| KDLQSVLYESRNKNSDA | WASTRES | QQYHRLPLS | nd nd nd | 1 of 9 (3.49) |
| KSSQSVLYESRNKNSVA | WADTRYS | DQYHRLPLS | 2.22 2.31 2.18 | 2 of 9 (4.52) |
| KSSQSVPYESRNKNSVA | TASTREA | QQYHRLPLS | -0.11 0.27 0.03 | 4 of 9 (5.94) |
| KSSQSVLYESRNKNSVA | WYSTRES | QGYRRLPLS | nd nd nd | 0 of 9 |
| KLSQSSLYESRNKNSVA | WASTRES | QQYHREPLS | nd nd 4.52 | 1 of 9 (2.17) |
| KSSQSVLYESRNKNSVA | WAQTREV | QYYHRLPLS | nd nd 4.14 | 2 of 9 (4.68) |
| ISSQSVLYESRNKNSAA | WASTRES | QQYHRLPLV | 4.47 5.21 nd | 4 of 9 (4.09) |
| KSSQSVLHESRNKNSVA | WAQTREK | QQYHRLPLS | nd nd nd | 1 of 9 (2.54) |
| KHSQSVLDESRNKNSVA | WASTRES | QQAHRLPLS | 1.72 1.69 1.95 | 0 of 9 |
| KNSQSVLYESRNKNSVA | HASTRES | QQYHRLPLD | -0.34 -0.08 -0.31 | 1 of 9 (4.83) |
| KSSQSVLYESRNKNSVA | WASTRES | QQVRRMPLS | 0.47 0.64 0.76 | 3 of 9 (4.05) |
| KSSQSTLYESRNKNSVA | WASTRES | QKYHRLPLS | nd 4.60 nd | 5 of 9 (4.62) |
| KSSQHVQYESRNKNSVV | WASTRES | QQYHRLPLS | nd nd nd | 0 of 9 |
| KSSQSVLYESRNKNSVA | PASTRES | QQYHRMPLI | nd nd nd | 0 of 9 |
| KSSISVLYESRNKNSVA | WASTREH | QQYTRLPLS | 1.36 1.49 1.91 | 0 of 9 |
| KNSQSVLYEHRNKNSVA | WASTRES | QQYHRLPLM | nd nd nd | 0 of 9 |
| KSSQSVLYYSRNKNSVN | WASTRES | QQYHRLTLS | nd 3.56 5.67 | 2 of 9 (3.55) |
| SSSQSVLYESRNKQSVA | QASTRES | QQYHRLPLS | -0.16 0.14 -0.05 | 0 of 9 |
| KSSQSVLYEARNKESVA | SASTRES | QQYHRLPLS | 0.41 0.83 0.65 | 0 of 9 |
| KTSQSVGYESRNKNSVA | WASTRES | QQVHRLPLS | 0.44 0.86 0.71 | 1 of 9 (3.84) |
| KSSQSVLYESRNKNCVA | WDSTRES | QQYHRGPLS | 2.50 2.62 2.95 | 0 of 9 |
| KSSQSVLNESRNPNSVA | WASTRES | QQYHRLPLS | 0.89 0.99 1.25 | 0 of 9 |
| KSTQSVLYESRNKNSVA | WQSTREP | QQYHRLPLS | nd 3.52 nd | 0 of 9 |
| ISSQSVLYESRNKNSVA | WASKRES | QQYHRLCLS | 2.41 2.09 2.32 | 4 of 9 (3.83) |
| KSNQSVLYHSRNKNSVA | WASTRES | QMYHRLPLS | 1.50 1.65 1.40 | 2 of 9 (4.09) |
| KVSQKVNYESRNKNSVA | WASTRES | QQYHRLPLS | -0.06 0.26 0.03 | 5 of 9 (3.84) |
| KSSQSVLYESRNKNSSA | WASTRES | QQYHRLPIS | nd 4.54 nd | 2 of 9 (4.07) |
| KSSQSVLDESRNKNSVA | MASPRES | QQYHRLPLS | 2.47 nd nd | 0 of 9 |
| KSSQCVLYESRNKNSVA | WASTREK | QQYHRLCLS | nd nd nd | 1 of 9 (3.41) |
| ASSQSVLYESRNKNSVA | WADTRWS | QQYHRLPLS | 1.06 1.39 1.28 | 6 of 9 (4.54) |
| KSSYSVLYESQNKNSVA | WASTRES | DQYHRLPLS | nd nd nd | 0 of 9 |
| KSSQSHLYESDNKNSVA | WAITRES | QQYHRLPLS | 2.35 1.79 2.61 | 0 of 9 |
| KSSQSIHYESRNKNSVA | WATTRES | QQYHRLPLS | 0.85 0.92 1.10 | 5 of 9 (3.91) |
| KSSQPQLYESRNKNSVA | WASTRES | QQYHRLPLS | 3.03 nd nd | 2 of 9 (4.29) |

For reference, 6 entries of the list once more:

{"CDR-L1": "KDLQSVLYESRNKNSDA", "CDR-L2": "WASTRES", "CDR-L3": "QQYHRLPLS", "replicates, log10 nM": "nd nd nd", "signal with controls": "1 of 9 (3.49)"}
{"CDR-L1": "SSSQSVLYESRNKQSVA", "CDR-L2": "QASTRES", "CDR-L3": "QQYHRLPLS", "replicates, log10 nM": "-0.16 0.14 -0.05", "signal with controls": "0 of 9"}
{"CDR-L1": "KSSQPQLYESRNKNSVA", "CDR-L2": "WASTRES", "CDR-L3": "QQYHRLPLS", "replicates, log10 nM": "3.03 nd nd", "signal with controls": "2 of 9 (4.29)"}
{"CDR-L1": "KSSQSVLYESRNKNSVA", "CDR-L2": "PASTRES", "CDR-L3": "QQYHRMPLI", "replicates, log10 nM": "nd nd nd", "signal with controls": "0 of 9"}
{"CDR-L1": "KHSQSVLDESRNKNSVA", "CDR-L2": "WASTRES", "CDR-L3": "QQAHRLPLS", "replicates, log10 nM": "1.72 1.69 1.95", "signal with controls": "0 of 9"}
{"CDR-L1": "ISSQSVLYESRNKNSVA", "CDR-L2": "WASKRES", "CDR-L3": "QQYHRLCLS", "replicates, log10 nM": "2.41 2.09 2.32", "signal with controls": "4 of 9 (3.83)"}